Data from publication PMC12473906, “Comparing the Altis RepliGut Organoid System to MDCK Monolayers in Predicting the Oral Absorption of Lenalidomide” (Pharmaceutics, 2025).

Key:
[1] = gMDCK (P-gp knockout MDCK) monolayer permeability assay; conditions: dog, pH 7.4
[2] = RepliGut human jejunal organoid-derived monolayer permeability assay; conditions: human, pH 7.4
[3] = tested on: human intestinal organoid-derived monolayer (RepliGut); experiment: as above; conditions: organoid vs gMDCK

Papp at 3 h [1]: 8.5 ×10⁻⁶ cm/s
Papp at 3 h [2]: 0.35 ×10⁻⁶ cm/s
efflux ratio at 3 h [2]: > 4
apical to basolateral apparent permeability in intestinal organoids compared with gMDCK monolayers [3]: significantly lower
basolateral to apical permeability in intestinal organoids compared with gMDCK cells [3]: similar
SMILES: CC(C)CN(C[C@@H](O)[C@H](Cc1ccccc1)NC(=O)O[C@H]1CCOC1)S(=O)(=O)c1ccc(N)cc1 [Amprenavir]
